In publication doi:10.1101/2025.02.07.636106:
The list shows a part of the results.

Tests used:
Kelch-like protein 9 = biological target: T1, Kelch-like protein 9 (UniProt Q9P2J3); test: co-fractionation; co-fractionation
T1 sequence: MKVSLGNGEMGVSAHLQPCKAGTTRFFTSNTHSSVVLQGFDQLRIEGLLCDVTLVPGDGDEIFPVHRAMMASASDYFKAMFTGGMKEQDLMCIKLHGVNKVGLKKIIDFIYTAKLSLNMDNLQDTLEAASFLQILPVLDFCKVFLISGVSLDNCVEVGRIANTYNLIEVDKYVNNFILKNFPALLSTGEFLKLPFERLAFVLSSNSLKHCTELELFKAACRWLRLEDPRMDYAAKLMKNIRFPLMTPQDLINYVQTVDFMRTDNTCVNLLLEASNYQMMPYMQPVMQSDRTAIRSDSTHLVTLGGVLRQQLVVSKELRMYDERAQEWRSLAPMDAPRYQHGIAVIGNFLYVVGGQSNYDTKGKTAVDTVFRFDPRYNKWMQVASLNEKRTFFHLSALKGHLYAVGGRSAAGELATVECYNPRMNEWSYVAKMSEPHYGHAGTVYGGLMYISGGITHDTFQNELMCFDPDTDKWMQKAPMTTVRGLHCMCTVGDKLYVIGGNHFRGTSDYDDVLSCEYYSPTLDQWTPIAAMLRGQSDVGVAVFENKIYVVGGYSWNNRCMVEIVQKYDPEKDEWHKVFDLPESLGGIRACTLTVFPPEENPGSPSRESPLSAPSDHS

[1] = biological target: Vacuolar protein sorting-associated protein 29 (UniProt Q9UBQ0); test: co-fractionation; co-fractionation
Obg-like ATPase 1 = Obg-like ATPase 1 (UniProt Q9NTK5); test: cross-link between two proteins; cross-linking mass spectrometry

## Cullin-3, Q13618
Kelch-like protein 9
  listed as a hit: yes

## Vacuolar protein sorting-associated protein 35, Q96QK1
[1]
  listed as a hit: yes

## DNA-directed RNA polymerase II subunit RPB2, P30876
Obg-like ATPase 1
  listed as a hit: yes
